Laboratory results from article PMC9743128, “Phenotype-based screening rediscovered benzopyran-embedded microtubule inhibitors as anti-neuroinflammatory agents by modulating the tubulin–p65 interaction” (Experimental & Molecular Medicine, 2022).

Test system: α-tubulin monomers in RAW264.7 cells
Assay: Tubulin monomer/polymer isolation and western blot
Format: cell-based, murine
Conditions: 10 μM for 6 h

For `COc1cc2c(c(OC)c1OC)-c1ccc(OC)c(=O)cc1[C@@H](NC(C)=O)CC2` [Colchicine], the “Total α-tubulin monomers” value was “increased the total α-tubulin monomers”.
